{
  "source": "patent US20250134855A1",
  "about": "“CO[…] AND METHODS OF USING SAME” (LYKOS THERAPEUTICS, INC., priority 2022, published 2025)",
  "key": {"dogs": {"tested_on": "dogs", "assay": "28-day repeat-dose toxicity, weekly oral, dogs", "details": "dogs (≤4 mg/kg)"}, "rats": {"tested_on": "rats", "assay": "28-day repeat-dose toxicity, weekly oral, rats", "details": "rats (≤20 mg/kg)"}},
  "data": [
    {"smiles": "CNC(C)Cc1ccc2c(c1)OCO2", "note": "(centres unmarked) [MDMA, 3,4-methylenedioxymethamphetamine]", "values": [
      {"measurement": "tolerability, 28-day repeat-dose", "setting": "dogs", "value": "well tolerated with no mortality or significant toxicologic findings"},
      {"measurement": "tolerability, 28-day repeat-dose", "setting": "rats", "value": "well tolerated with no mortality or significant toxicologic findings"}
    ]}
  ]
}
